## Ab-14 light chain CDR variants: yeast mating affinities

Source: Engelhart et al. 2022 (doi:10.1038/s41597-022-01779-4), MIT Lincoln Laboratory and A-Alpha Bio; data file from the FLAb repository.

Target peptide (SARS-CoV-2 spike, HR2 region): PDVDLGDISGINAS

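The parent was found by panning a naive human phage display library on the peptide. Library AAYL50 holds single substitutions and randomly drawn double and triple substitutions in the CDRs. AlphaSeq pools MATa yeast showing the antibodies with MATalpha yeast showing the peptide. The frequency of each diploid, read from paired DNA barcodes, reflects how well the two displayed proteins bind. Read counts were normalised to the haploid input and turned into Kd by a linear fit to BCL2-family pairs of known affinity, for each replicate. There are three technical replicates.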

Parent scFv Ab-14: VH joined to VL by a (GGGGS)3 linker. Changes lie in the light chain CDRs alone.
VH: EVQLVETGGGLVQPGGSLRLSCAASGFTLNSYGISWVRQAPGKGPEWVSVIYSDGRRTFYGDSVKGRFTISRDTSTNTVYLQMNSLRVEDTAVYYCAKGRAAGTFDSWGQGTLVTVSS
VL: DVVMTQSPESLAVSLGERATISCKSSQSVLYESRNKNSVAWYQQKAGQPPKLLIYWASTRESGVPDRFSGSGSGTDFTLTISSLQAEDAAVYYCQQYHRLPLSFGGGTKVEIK

Substitutions are numbered in sequence along the VL above, starting at 1 (not Kabat). Every variant below is changed at V39 of the VL (sequential numbering). The read-out is the apparent dissociation constant on a log10 scale (nM): the lower, the stronger. Averages over replicates are reported, and they cover detected replicates only. An entry "nd" has no value in the source: the pair was not observed among the diploids in any replicate. This suggests poor binding but is not conclusive.

| changes | log10 Kd (nM), mean | seen in |
|---|---|---|
| S38L/V39I/T59N | nd | 0 of 3 |
| Y31M/V39K/T59G | nd | 0 of 3 |
| Q27F/V39C/S103T | nd | 0 of 3 |
| K36L/V39G/S58R | nd | 0 of 3 |
| E32H/S33A/V39C | 3.20 | 1 of 3 |
| N37G/V39L/S62D | 2.04 | 3 of 3 |
| K24V/V39H | 3.70 | 1 of 3 |
| S38F/V39E/A57W | 3.90 | 1 of 3 |
| V39Q/E61N/Y97L | nd | 0 of 3 |
| S26G/V39Y | 4.00 | 2 of 3 |
| S38W/V39D/S62H | 5.53 | 1 of 3 |
| V29K/E32M/V39W | nd | 0 of 3 |
| V39Y | 5.09 | 2 of 3 |
| K24V/V39C/S62R | 6.00 | 1 of 3 |
| N35Q/V39P/P101V | nd | 0 of 3 |
| Y31M/V39R/Q95D | 3.93 | 1 of 3 |
| V29D/V39A/L100W | 3.91 | 2 of 3 |
| S33W/V39E/L102N | nd | 0 of 3 |
| S33R/V39G/W56R | 3.96 | 1 of 3 |
| K24G/V39T/Y97P | nd | 0 of 3 |
| V39F/S58F/T59L | 4.89 | 2 of 3 |
| S25C/V39N/A40I | nd | 0 of 3 |
| V29C/V39E/T59A | nd | 0 of 3 |
| V39G/S62H/Y97H | 4.33 | 2 of 3 |
| K24A/N37D/V39T | nd | 0 of 3 |
| V29H/Y31A/V39D | nd | 0 of 3 |
| V39A/S58N/H98K | nd | 0 of 3 |
| S38N/V39N/R99W | nd | 0 of 3 |
| N37R/V39W/T59A | 5.63 | 1 of 3 |
| S26V/V39I/Q96V | 0.21 | 3 of 3 |
| V39T/R99V | nd | 0 of 3 |
| V29E/V39A/S58D | 3.87 | 2 of 3 |
| V39I/Y97P/P101Y | 0.56 | 3 of 3 |
| V39D | nd | 0 of 3 |
| E32H/V39I/R60A | 3.17 | 3 of 3 |
| V39R/T59Y/L100C | nd | 0 of 3 |
| S33G/V39I/L102Y | nd | 0 of 3 |
| Y31G/V39W/Q96N | nd | 0 of 3 |
| E32F/V39K/Q95C | 4.95 | 2 of 3 |
| L30T/V39D/E61V | 1.28 | 3 of 3 |
| V39H | nd | 0 of 3 |
| Y31H/V39E/H98F | 3.79 | 1 of 3 |
| V39G/A57K/Q96T | nd | 0 of 3 |
| S28L/V29Y/V39Y | 4.30 | 3 of 3 |
| S28Q/V39H/S62G | nd | 0 of 3 |
| V39W/R60K | nd | 0 of 3 |
| N35A/V39W/A57C | nd | 0 of 3 |
| V39C/A57R/R60E | nd | 0 of 3 |
| N35W/V39Y/T59N | 3.93 | 1 of 3 |
| V39R/Y97S | 4.43 | 1 of 3 |
| V39F/W56R/S103L | 1.99 | 3 of 3 |
| N37P/V39E/H98K | nd | 0 of 3 |
| R34C/V39P/R60E | nd | 0 of 3 |
| V39G/A57F/S58C | nd | 0 of 3 |
| Y31T/V39N/A40V | 4.44 | 3 of 3 |
| S33M/V39I | 1.21 | 3 of 3 |
| S33W/N37S/V39D | 4.02 | 1 of 3 |
| Q27F/K36Q/V39F | 2.55 | 3 of 3 |
| K36E/V39I/R99I | 1.29 | 3 of 3 |
| Q27W/V39S/W56V | 5.54 | 2 of 3 |
| S33C/V39C/Q96C | nd | 0 of 3 |
| V29R/V39Y/S58N | 2.10 | 3 of 3 |
| L30Q/V39R/A57K | 5.16 | 2 of 3 |
| V39T/Q96M/R99K | 5.10 | 3 of 3 |
| S28L/V39S | 3.73 | 3 of 3 |
| L30P/V39S/S58P | 2.47 | 1 of 3 |
| V39R/H98C | 4.42 | 2 of 3 |
| V39M | nd | 0 of 3 |
| N35Y/N37A/V39P | 6.03 | 1 of 3 |
| L30P/V39R/Y97V | 5.27 | 3 of 3 |
| N37W/V39T/Q95Y | 3.34 | 1 of 3 |
| R34S/K36H/V39N | 4.42 | 2 of 3 |

The closing 11 entries, repeated:

| changes | log10 Kd (nM), mean | seen in |
|---|---|---|
| V29R/V39Y/S58N | 2.10 | 3 of 3 |
| L30Q/V39R/A57K | 5.16 | 2 of 3 |
| V39T/Q96M/R99K | 5.10 | 3 of 3 |
| S28L/V39S | 3.73 | 3 of 3 |
| L30P/V39S/S58P | 2.47 | 1 of 3 |
| V39R/H98C | 4.42 | 2 of 3 |
| V39M | nd | 0 of 3 |
| N35Y/N37A/V39P | 6.03 | 1 of 3 |
| L30P/V39R/Y97V | 5.27 | 3 of 3 |
| N37W/V39T/Q95Y | 3.34 | 1 of 3 |
| R34S/K36H/V39N | 4.42 | 2 of 3 |

Empty control strains, which show no peptide, gave a signal in 18% of pairings with library AAYL50; the median was 4.19 and 95% of these signals were weaker than 2.99. No background was subtracted.